Target: T1, mouse IDO1 (Mus musculus, UniProt P28776)
T1 construct: The murine PANC02 pancreatic ductal adenocarcinoma cell line was routinely maintained in DMEM media; endogenous in cells; host or cells: PANC02 murine pancreatic ductal adenocarcinoma cells, induced with mouse IFNgamma
Assay: Mouse IDO1 cell-based assay (PANC02 cells, mouse IFNgamma-induced, N-formylkynurenine/L-tryptophan by RFMS)
Description: The murine PANC02 pancreatic ductal adenocarcinoma cell line was routinely maintained in DMEM media containing 10% FBS. Cells (3,000/well) were seeded onto a 384 well plate in 50 μl of media and incubated at 37° C., 5% CO2 overnight. Cell media was aspirated, fresh media containing 30 ng/mL mouse IFNgamma (Gibco Life Technologies, cat #PMC4031) was added, and cells were incubated in absence or presence of various concentrations of compounds (final 0.5% DMSO) for 48 hours at 37° C., 5% CO2. Aliquots of the cell conditioned media was removed from the cell plate, and mixed with equal volume of 200 mM ZnSO4 to precipitate media containing protein. Two volumes of acetonitrile were added by mixing, and samples were then centrifuged at 2250G for 20 minutes at 4° C. Aliquots of the supernatant were diluted 1:10 in 0.1% formic acid containing 3 μM of deuterated Tryptophan as an internal standard.
Samples were analyzed via RFMS to quantify N-Formyl Kynurenine (AUC) and L-tryptophan (AUC). A C18 cartridge was used with mobile phases of 0.1% Formic Acid and 80% ACN/0.1% Formic Acid under isocratic conditions. Dose-response curves were analyzed using IC50 regression curve fitting (GeneData Screener). […] Cell viability was also assessed using the Cell Titer Glo Kit (Promega) following manufacture recommendation.

Sequences of proteins named here, by UniProt entry; tags and fusion partners are left off. A change or cut given only in a name is not applied to a line headed by its entry.
UniProt P28776: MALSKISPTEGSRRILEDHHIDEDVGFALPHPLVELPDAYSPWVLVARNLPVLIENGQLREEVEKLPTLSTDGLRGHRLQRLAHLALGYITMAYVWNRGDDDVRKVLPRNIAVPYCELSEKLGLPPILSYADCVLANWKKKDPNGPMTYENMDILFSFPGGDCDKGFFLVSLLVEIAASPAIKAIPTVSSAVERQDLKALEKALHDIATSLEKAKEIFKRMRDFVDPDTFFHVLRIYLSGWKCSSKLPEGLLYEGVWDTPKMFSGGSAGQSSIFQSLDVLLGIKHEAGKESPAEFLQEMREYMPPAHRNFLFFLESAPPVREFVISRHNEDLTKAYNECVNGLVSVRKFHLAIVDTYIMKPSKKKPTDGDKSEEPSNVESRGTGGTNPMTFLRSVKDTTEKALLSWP

## CCC(NC(=O)c1ccc(Cl)cc1)[C@H]1[C@@H]2C[C@@H](n3cnc4c(F)cccc43)C[C@@H]21 (stereo partly drawn) [Compound 194, 4-chloro-N-(1-((1R,3s,5S,6r)-3-(4-fluoro-1H-benzo[d]imidazol-1-yl)bicyclo[3.1.0]hexan-6-yl)propyl)benzamide]
  IC50: < 500 nM

Reference: patent US11173145B2, “Compounds useful as inhibitors of indoleamine 2,3-dioxygenase and/or tryptophan dioxygenase” (Board of Regents, The University of Texas System, priority 2017, dated 2021)
